GIV-Gai inh: inhibitors of GIV GBA-motif binding to rat Galpha-i3; P08753; Galpha-i3/FITC-GIV peptide fluorescence polarization, 90 min; stronger effect = lower value; scaled: aluminum fluoride 0%, vehicle 100%; percent of control (FP), % (test concentration not listed); 210,000 tested, 0.42% active; AID 1224905;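 active = replicate mean at 85% of control or lower, very high polarization wells dropped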;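 note: wells of about 15 µL received 100 nL stock; the first replicate is given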
HCMV UL50-53 inh: inhibitors of HCMV UL50-UL53 interaction, biochemical, HTRF; 190,000 tested, 0.15% active; inhibition, % (concentration not given with the values); AID 1918969, 2023; normalized percent inhibition; HCMV UL50-UL53 nuclear egress complex (human cytomegalovirus); in the data active = inhibition above about 27%, passing the limit was not always enough
An asterisk follows results filed as active; . = not tested or not shown. Shown are actives, neighbours in structure and some others; about 0.43% of the full set was active somewhere.

(1) CC(C)c1ccc(C2Oc3ccccc3C3CC(c4ccc(Br)cc4)=NN32)cc1 (configuration not stated)
(2) CCOC(=O)N1CCN(c2cc(NCCCC(=O)O)c3c4c(onc24)-c2ccccc2C3=O)CC1
(3) CCOC(=O)C1CCN(c2cc(NCC(=O)O)c3c4c(onc24)-c2ccccc2C3=O)CC1
(4) CCNc1cc(N2CCCCCC2)c2noc3c2c1C(=O)c1ccccc1-3
(5) O=C(O)CCCNc1cc(N2CCCC2)c2noc3c2c1C(=O)c1ccccc1-3
(6) CCOC(=O)N1CCN(c2cc(NCCC(=O)O)c3c4c(onc24)-c2ccccc2C3=O)CC1
(7) CCN1CCN(c2cc(NCC(=O)O)c3c4c(onc24)-c2ccccc2C3=O)CC1
(8) CC(C)CNc1cc(N2CCCC2)c2noc3c2c1C(=O)c1ccccc1-3
entry no.,1,2,3,4,5,6,7,8
GIV-Gai inh,98,-74*,-57*,-20*,111,-79*,108,133
HCMV UL50-53 inh,-2,-210,-131,-69,-30,.,-72,-35

(9) CCCCNc1cc(N2CCN(C3CCCCC3)CC2)c2noc3c2c1C(=O)c1ccccc1-3
(10) O=C(C1CCN(c2nc3cccnc3s2)CC1)N1CCCCC1
(11) Cc1cccc(Nc2cc(NCc3ccccc3)c3noc4c3c2C(=O)c2ccccc2-4)c1
(12) CCNc1ccc2noc3c2c1C(=O)c1ccccc1-3
(13) CCNc1cc(NCC)c2noc3c2c1C(=O)c1ccccc1-3
(14) O=C1c2ccccc2-c2onc3c(Br)cc(NCc4ccccc4)c1c23
(15) Cc1csc(-c2cc(S(=O)(=O)N3CCN(C)CC3)cn2CC(=O)N2CCCCC2)n1
(16) COc1ccc(C(=O)Oc2ccc(/C=c3/sc4nc5ccccc5n4c3=O)cc2)cc1
entry no.,9,10,11,12,13,14,15,16
GIV-Gai inh,229,94,109,-48*,207,-21*,105,97
HCMV UL50-53 inh,-43,4,.,-188,-41,.,.,-13

(17) CC1=NN(c2ccccc2)C(=O)/C1=C\c1ccc(N(C)C)cc1
(18) CN1C(=O)C(=Cc2ccc(Oc3ccc([N+](=O)[O-])cc3[N+](=O)[O-])cc2)C(=O)N(C)C1=O
(19) COc1ccc(/C=C2\C(=O)N(c3ccccc3)N=C2C)cc1
(20) CC1=NN(c2ccccc2)C(=O)/C1=C\c1ccc(Oc2ccc([N+](=O)[O-])cc2[N+](=O)[O-])cc1
(21) O=C(CSc1nnc2sc3ccccc3n12)NC1CCCC1
(22) CC(CN1CCN(Cc2ccccc2)CC1)OC(=O)c1cccs1 (configuration not stated)
(23) Cc1csc(CC(N)=S)n1
(24) O=S(=O)(c1ccc2c(c1)OCCO2)N1CCCCC1c1cccnc1 (configuration not stated)
entry no.,17,18,19,20,21,22,23,24
GIV-Gai inh,105,93,109,97,.,95,.,-71*
HCMV UL50-53 inh,-21,-63,43*,54*,-2,-12,-28,-17

Structural class: the entries above with bromine (two)
(1) CC(C)c1ccc(C2Oc3ccccc3C3CC(c4ccc(Br)cc4)=NN32)cc1 (configuration not stated)
(14) O=C1c2ccccc2-c2onc3c(Br)cc(NCc4ccccc4)c1c23
entry no.,1,14
GIV-Gai inh,98,-21*
HCMV UL50-53 inh,-2,.

(more compounds)
(25) O=S(=O)(c1ccc2nsnc2c1)N1CCCCC1c1cccnc1 (configuration not stated)
(26) CCOC(=O)CSc1nc2sc3c(c2c(=O)n1-c1ccccc1)CCC3
(27) COC(=O)c1cc(-c2cncnc2-c2ccc(OC)c(C)c2O)c(C)o1
(28) CCOc1cc(C=C2C(=O)N(C)C(=O)N(C)C2=O)ccc1OCCOCCOc1ccc(C)cc1
(29) CCOc1cc(C=C2C(=O)N(C)C(=O)N(C)C2=O)ccc1OCCOc1ccc([N+](=O)[O-])cc1
(30) CCS(=O)(=O)N(C)c1ccc(C(=O)Nc2ccc(OC)cc2OC)cc1
(31) O=c1[nH]c(=S)[nH]c(O)c1C=Nc1ccc(Br)cc1
(32) N#CC1=C(N)SC(N)=C(C#N)C1c1cc2c(cc1Cl)OCO2
entry no.,25,26,27,28,29,30,31,32
GIV-Gai inh,102,100,.,105,103,97,108,-0.4*
HCMV UL50-53 inh,-58,-23,-11,10,55*,-29,37,-26

(33) CCc1ccc(C2C(C#N)=C(N)Oc3cc4c(cc32)OCO4)cc1 (configuration not stated)
(34) O=C(Cc1ccccc1)Nc1ccc2c(c1)OCO2
(35) O=C(O)CSCc1nc2ccccc2[nH]c1=O
(36) COC(=O)CSc1nc2ccccc2[nH]1
(37) COC(=O)CSCc1nc2ccccc2[nH]c1=O
(38) O=C(O)CSCc1nc2ccccc2[nH]1
(39) CCOc1ccccc1C(=O)NCC(=O)NCc1cscn1
(40) CC(CC1C(C#N)=C(N)SC(N)=C1C#N)c1ccccc1 (configuration not stated)
entry no.,33,34,35,36,37,38,39,40
GIV-Gai inh,104,.,145,100,212,.,107,-74*
HCMV UL50-53 inh,.,10,52*,-43,57*,-4,.,-8

(41) CC(c1ccccc1)C1C(C#N)=C(N)SC(N)=C1C#N (configuration not stated)
(42) O=C(Nc1ccc(F)cc1)C1CCCN(c2ccc3cc(S(=O)(=O)N4CCCCC4)ccc3n2)C1 (configuration not stated)
(43) C=CCN1C(=O)C2C(C(=O)NCc3ccccc3)C3C=CC2(O3)C1C(=O)NC1CCCC1 (configuration not stated)
(44) C/C(=N\NC(=O)CN1CCCC1=O)c1ccc(NC2=NCCCS2)cc1
(45) C=CC(=O)Nc1ccc(-c2nc3ccc(NC(=O)C=C)cc3[nH]2)cc1
(46) CC(C)(C)C(=O)Nc1ccc(-c2nc3ccc(NC(=O)C(C)(C)C)cc3[nH]2)cc1
(47) NC(Cc1nc2ccccc2[nH]1)c1cccnc1 (configuration not stated)
(48) CCOC(=O)C1=C(C)N=c2s/c(=C\c3ccc(O)cc3)c(=O)n2C1c1ccc(OC)c(OCC)c1 (configuration not stated)
entry no.,41,42,43,44,45,46,47,48
GIV-Gai inh,108,105,101,.,111,100,102,145
HCMV UL50-53 inh,-18,-16,-23,-35,54*,9,-88,10

(49) NNc1nc(-c2ccccc2)cc(-c2ccccc2O)n1
(50) COc1ccc(-c2cc(-c3ccccc3O)nc(NC(N)=S)n2)cc1
(51) O=C(NC1CC1)C1CCCN(C(=O)C2CC2)C1 (configuration not stated)
(52) CC1=CC(=C2C(=O)NC(=S)NC2=O)C=C(C)N1CCc1ccccc1
(53) CC1=CC(=C2C(=O)NC(=O)NC2=O)C=C(C)N1c1ccccc1
(54) CCC(C)OC(=O)C1=C(C)NC2(O)c3ccccc3C(=O)C12O (configuration not stated)
(55) CC1=C(C(=O)OC(C)C)C2(O)C(=O)c3ccccc3C2(O)N1 (configuration not stated)
(56) N#CC1=C(N)SC(N)=C(C#N)C1c1cccc2ccccc12
entry no.,49,50,51,52,53,54,55,56
GIV-Gai inh,103,.,100,98,-4.9*,107,99,-36*
HCMV UL50-53 inh,.,51*,.,-29,-4,.,61*,-48

(57) Cc1ccc(C2C(C#N)=C(N)SC(N)=C2C#N)c(C)c1
(58) N#CC1=C(N)SC(N)=C(C#N)C1c1ccccc1F
(59) CC(C)C1C(C#N)=C(N)SC(N)=C1C#N
(60) CC(C)n1c(N2CCN(Cc3ccc(Cl)cc3)CC2)nc2ccccc21
(61) Nn1c(SCC(=O)NC2CCCC2)nnc1-c1ccc(Cl)cc1Cl
(62) Cc1cccc(-c2nc3nc(C)cc(=O)n3[nH]2)c1
(63) Cc1ccn2c(=O)cc(CSc3nnc(-c4cccs4)n3C3CC3)nc2c1
(64) O=c1oc2cc(O)ccc2cc1-c1nc(-c2cccs2)cs1
entry no.,57,58,59,60,61,62,63,64
GIV-Gai inh,8.5*,.,121,102,.,100,.,-32*
HCMV UL50-53 inh,-25,-20,-15,-1,11,-18,-3,.

(65) O=c1oc2cc(O)ccc2cc1-c1nc(-c2ccc(Cl)c(Cl)c2)cs1
(66) CC(=O)Oc1ccc2cc(-c3nc(-c4cccs4)cs3)c(=O)oc2c1
(67) CC(=O)Oc1ccc2cc(-c3nc(-c4ccc(Cl)c(Cl)c4)cs3)c(=O)oc2c1
(68) COc1ccc(S(=O)(=O)N(CC(=O)NCCSCc2ccccc2)c2ccc(C)cc2)cc1OC
entry no.,65,66,67,68
GIV-Gai inh,-69*,150,116,99
HCMV UL50-53 inh,.,.,.,-14

Assay outcomes as filed in PubChem.
